# Binding of CDR-mutated scFvs to a peptide of the spike HR2 region

Values reported by Engelhart et al. 2022, doi:10.1038/s41597-022-01779-4 (FLAb copy).

Antigen: PDVDLGDISGINAS, a 14-residue peptide of the SARS-CoV-2 spike HR2 region.

Ab-95 is the parent antibody, in scFv form: VH, then the linker GGGGSGGGGSGGGGS, then VL. The heavy chain is unchanged in all variants.
VH: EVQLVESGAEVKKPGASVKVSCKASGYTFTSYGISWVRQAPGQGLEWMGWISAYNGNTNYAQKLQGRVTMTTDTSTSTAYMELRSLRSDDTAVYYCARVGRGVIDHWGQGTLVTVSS
VL: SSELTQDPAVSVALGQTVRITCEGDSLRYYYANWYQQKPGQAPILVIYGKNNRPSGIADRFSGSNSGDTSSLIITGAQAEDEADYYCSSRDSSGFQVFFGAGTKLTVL

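Phage display of a naive human antibody library on the peptide gave the parent. Variants in AAYL52 differ from the parent at up to three CDR positions; double and triple changes were sampled at random. The scFvs were displayed on barcoded MATa yeast, the peptide on MATalpha yeast. The frequency of each diploid, read from paired DNA barcodes, reflects how well the two displayed proteins bind. A regression on co-assayed BCL2-family reference pairs converts the normalised counts of each replicate to an apparent Kd. Each pool was mated in three replicate cultures.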

Changes read parent residue, position, new residue, counted from the first residue of the VL shown.
All variants listed here change D25 of the VL, counted from its first residue.
The read-out is the apparent dissociation constant on a log10 scale (nM): the lower, the stronger.
A mean of the replicates is given; it leaves out those without a signal.
"no signal" marks a missing value. The strain was present, yet no cells mated with the target were sequenced in any replicate, which points to weak or no binding.
In this assay the parent's reference entry averaged 2.31; its copy inside this library read 2.25.
Background: pairings of library AAYL52 with three empty control strains gave a value in 28% of cases (median 3.91, 5th percentile 2.90). Values in that range, when seen in few replicates, are hard to tell from nonspecific mating.

Variant E23S/D25Q/K50E showed no signal (0 of 3 replicates). With D25C/S88Y/D91I the result was 4.63 (2 of 3 replicates). With D25W/S93C/Q96A the result was 5.05 (1 of 3 replicates). With D25S/R53V/P54N the result was 2.32 (3 of 3 replicates). Variant D25Q/N33Y/R90K gave 5.44 (1 of 3 replicates). Variant D25V/S88I/F98V showed 4.09 (2 of 3 replicates). Variant D25L/R90I/S92F showed 3.28 (2 of 3 replicates).

Variant D25Q/Y29Q/R90M showed no signal (0 of 3 replicates). For D25S/L27N, the assay gave 3.14 (3 of 3 replicates). For E23K/D25C/V97L, the assay gave 3.54 (1 of 3 replicates). Variant D25R/Y31M/A32P gave 1.72 (3 of 3 replicates). Variant D25G/K50R/S93N gave 2.58 (3 of 3 replicates). For D25K/Y29N/S93G, the assay gave 1.67 (3 of 3 replicates). With D25N/R28E/Q96R the result was 2.19 (3 of 3 replicates).

Variant E23D/D25I/S93P gave 3.36 (3 of 3 replicates). Variant D25N/N33L/R90K gave no signal (0 of 3 replicates). For D25N/S26N/D91M, the assay gave no signal (0 of 3 replicates). Variant D25V/A32C/N51T gave 3.71 (3 of 3 replicates). With D25N/N33H/G94S the result was 4.14 (3 of 3 replicates). Variant D25A/N33L/P54E gave 3.78 (2 of 3 replicates). With D25R/Y31R/F95L the result was 4.64 (3 of 3 replicates).

Variant D25S/Y30G/G49I showed 3.76 (1 of 3 replicates). With D25K/L27H/Y31N the result was 2.33 (3 of 3 replicates). With D25F/P54L/S55T the result was 3.81 (3 of 3 replicates). Variant D25M/R28S/Q96V showed 3.65 (2 of 3 replicates). With D25R/S26E/S55T the result was 3.85 (2 of 3 replicates). Variant D25K/R28V/Y29A showed 2.83 (3 of 3 replicates). With D25A/R28C/S55E the result was 2.71 (3 of 3 replicates).

For D25E/S26C/Q96F, the assay gave 2.72 (1 of 3 replicates). Variant D25Y/F95V/V97E showed 4.23 (2 of 3 replicates). With D25K/N33W/G94F the result was no signal (0 of 3 replicates). Variant E23C/D25M/Q96L showed 3.28 (3 of 3 replicates). Variant D25I/K50G/G94I showed no signal (0 of 3 replicates). Variant G24Q/D25K/R28H showed 2.12 (3 of 3 replicates). For D25Y/L27G/F98N, the assay gave 1.76 (3 of 3 replicates).

Variant D25K/R53M/S88N showed 5.81 (1 of 3 replicates). With D25G/N33K/R53K the result was 4.22 (3 of 3 replicates). Variant D25C gave 1.79 (3 of 3 replicates). Variant D25R/N51S/R53F showed 3.75 (2 of 3 replicates).

The 6 strongest on average among those seen in every replicate, once more:

changes	mean, log10 nM	detected
D25K/Y29N/S93G	1.67	3 of 3
D25R/Y31M/A32P	1.72	3 of 3
D25Y/L27G/F98N	1.76	3 of 3
D25C	1.79	3 of 3
G24Q/D25K/R28H	2.12	3 of 3
D25N/R28E/Q96R	2.19	3 of 3